Consider one substance from PMC10280071, “Allelic variation in the indoleacetic acid-lysine synthase gene of the bacterial pathogen Pseudomonas savastanoi and its role in auxin production” (Frontiers in Plant Science, 2023).

In this data set the test system is NCCCC[C@H](N)C(=O)O. Briefly: purified protein. As to conditions: 1 mM IAA fixed, lysine 0.01-10 mM, 1 mM ATP, 3 mM MgCl2, 100 mM KCl, 50 mM Tris-HCl pH 8.0, 25 °C.

For the substance “IaaLPsn-1 (Pseudomonas savastanoi pv. nerii)”, the Km was 1487 ± 431 µM, the Vmax is 0.0107 µmol/min/mg and the Vmax/Km stood at 7.2 µL/min/mg.

Usually Km stands for the concentration of substrate that gives half-maximal velocity. The Vmax is the top rate of the reaction or transport when substrate is in excess.
